## Binding of CDR-mutated scFvs to a peptide of the spike HR2 region

From the AlphaSeq antibody data of Engelhart et al. 2022 (doi:10.1038/s41597-022-01779-4), copy in the FLAb collection.

Binding partner: SARS-CoV-2 spike HR2 peptide, sequence PDVDLGDISGINAS.

The variants keep the heavy chain, the linker and the frameworks of Ab-14 (scFv order VH, three GGGGS repeats, VL).
VH: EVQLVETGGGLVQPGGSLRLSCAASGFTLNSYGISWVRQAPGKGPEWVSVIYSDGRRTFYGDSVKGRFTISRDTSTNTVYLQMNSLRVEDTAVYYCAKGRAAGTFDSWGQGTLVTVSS
VL: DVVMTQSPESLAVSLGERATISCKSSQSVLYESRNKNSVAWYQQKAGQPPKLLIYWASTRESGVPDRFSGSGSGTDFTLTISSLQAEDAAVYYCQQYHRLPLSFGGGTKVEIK

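The starting antibody came from a phage panning campaign against this peptide. In library AAYL50, one, two or three CDR residues were substituted; doubles and triples were drawn at random. In AlphaSeq, yeast of one mating type display the scFv and yeast of the other type display the target. Binding brings cells together so that they mate, and sequencing counts the barcode pairs among the diploids. Read counts were normalised to the haploid input and turned into Kd by a linear fit to BCL2-family pairs of known affinity, for each replicate. Each pool was mated in three replicate cultures.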

Each variant's VL is given in full.
The read-out is the apparent dissociation constant on a log10 scale (nM): the lower, the stronger.
"ND" means that the variant was in the library but no mating with the target was seen in that replicate; the authors take this as a sign of poor binding, and no number exists.

VL	log10 Kd, replicates	signal with controls
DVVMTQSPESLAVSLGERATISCKSSQSVLYESRNKNSVAWYQQKAGQPPKLLIYWAFTRESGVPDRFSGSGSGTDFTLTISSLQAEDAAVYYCQQYHLVPLSFGGGTKVEIK	ND ND 3.73	0 of 9
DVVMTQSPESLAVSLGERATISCKSSQSVLYESRNKNSVAWYQQKAGQPPKLLIYWASTRESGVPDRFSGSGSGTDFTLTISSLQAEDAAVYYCDQSHRLPLSFGGGTKVEIK	ND 2.14 2.67	0 of 9
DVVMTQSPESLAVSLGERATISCKSSQSVLYESRNYNSVAWYQQKAGQPPKLLIYWASTRVSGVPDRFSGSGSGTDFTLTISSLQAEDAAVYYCQQYHILPLSFGGGTKVEIK	0.43 0.69 0.78	1 of 9 (2.38)
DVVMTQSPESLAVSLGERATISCKSSGSVLYESRGKNSVAWYQQKAGQPPKLLIYWCSTRESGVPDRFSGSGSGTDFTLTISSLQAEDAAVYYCQQYHRLPLSFGGGTKVEIK	3.10 4.21 4.05	2 of 9 (4.54)
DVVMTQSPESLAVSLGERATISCKSAQSVLYESRNKNSVAWYQQKAGQPPKLLIYWASTRESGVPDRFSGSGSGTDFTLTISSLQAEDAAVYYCIQYHNLPLSFGGGTKVEIK	3.96 4.98 ND	7 of 9 (4.19)
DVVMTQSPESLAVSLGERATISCKISLSVLYESYNKNSVAWYQQKAGQPPKLLIYWASTRESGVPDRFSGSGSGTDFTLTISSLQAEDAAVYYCQQYHRLPLSFGGGTKVEIK	0.71 1.03 0.88	1 of 9 (3.97)
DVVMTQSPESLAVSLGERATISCKSSQSVLYLSRNKNSVAWYQQKAGQPPKLLIYWASTRMSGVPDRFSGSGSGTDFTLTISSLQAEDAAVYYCQPYHRLPLSFGGGTKVEIK	ND 3.29 ND	1 of 9 (3.01)
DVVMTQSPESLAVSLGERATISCKSSQSVLYEFRNKNSVAWYQQKAGQPPKLLIYWQSTRESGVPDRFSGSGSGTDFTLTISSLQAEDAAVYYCQQYERLPLSFGGGTKVEIK	ND ND ND	1 of 9 (4.78)
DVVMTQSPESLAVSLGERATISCKSSQSVLYESRNKNSVNWYQQKAGQPPKLLIYWASTRQSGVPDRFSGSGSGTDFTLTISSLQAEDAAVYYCQQYHRLPCSFGGGTKVEIK	2.91 ND ND	1 of 9 (4.01)
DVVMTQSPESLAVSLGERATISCKSSQSFLYESRNKNSVAWYQQKAGQPPKLLIYWASTRESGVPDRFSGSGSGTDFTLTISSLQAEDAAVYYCRQRHRLPLSFGGGTKVEIK	0.96 1.29 0.97	2 of 9 (3.73)
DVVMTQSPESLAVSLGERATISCKSSQSVLYEFRNKNSVAWYQQKAGQPPKLLIYWASTRESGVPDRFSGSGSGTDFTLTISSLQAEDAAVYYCQQYHRLPLSFGGGTKVEIK	0.75 0.99 1.33	0 of 9
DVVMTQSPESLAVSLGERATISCKSSLSVLYKSRNKNSVAWYQQKAGQPPKLLIYWASTRESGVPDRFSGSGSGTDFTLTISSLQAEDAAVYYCQQYHRLPESFGGGTKVEIK	2.39 2.36 2.71	3 of 9 (3.74)
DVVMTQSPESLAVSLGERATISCKSSQSVLYESRNNNSVAWYQQKAGQPPKLLIYWASIRESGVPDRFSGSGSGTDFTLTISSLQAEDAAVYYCQQYDRLPLSFGGGTKVEIK	2.46 1.45 2.59	0 of 9
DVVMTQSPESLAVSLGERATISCKSSQSVLWESRAKNSVAWYQQKAGQPPKLLIYWAQTRESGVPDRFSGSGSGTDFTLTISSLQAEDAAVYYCQQYHRLPLSFGGGTKVEIK	1.80 1.87 1.92	5 of 9 (4.63)
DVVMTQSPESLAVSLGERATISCKSSQSVLYESRNINSVAWYQQKAGQPPKLLIYWASTRESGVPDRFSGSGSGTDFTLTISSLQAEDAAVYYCQEYHRLPLSFGGGTKVEIK	2.17 1.74 2.42	2 of 9 (3.62)
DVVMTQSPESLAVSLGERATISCKSSQMVLYEPRVKNSVAWYQQKAGQPPKLLIYWASTRESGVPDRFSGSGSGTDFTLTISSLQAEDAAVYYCQQYHRLPLSFGGGTKVEIK	1.73 1.73 1.81	1 of 9 (5.06)

Picked from the list: the 2 lowest averages where every replicate gave a value.

VL	log10 Kd, replicates	signal with controls
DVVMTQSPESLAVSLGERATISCKSSQSVLYESRNYNSVAWYQQKAGQPPKLLIYWASTRVSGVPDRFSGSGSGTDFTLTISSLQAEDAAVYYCQQYHILPLSFGGGTKVEIK	0.43 0.69 0.78	1 of 9 (2.38)
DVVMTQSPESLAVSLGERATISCKISLSVLYESYNKNSVAWYQQKAGQPPKLLIYWASTRESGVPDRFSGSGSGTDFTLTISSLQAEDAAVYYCQQYHRLPLSFGGGTKVEIK	0.71 1.03 0.88	1 of 9 (3.97)

For reference, the parent read 0.65 as the reference entry and 1.68 as a member of this library.
Empty control strains, which show no peptide, gave a signal in 18% of pairings with library AAYL50; the median was 4.19 and 95% of these signals were weaker than 2.99. No background was subtracted. Also given: how often the same scFv was detected with the empty control strains, with their mean in brackets.